This is a selection; strong and weak results do not stand in their true shares. Calls of active or inactive are those of the source.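 How the source made its calls: active means compounds whose plate-normalised and pattern-corrected inhibition of the luciferase reporter signal at the single screening dose is 50% or more; inactive means the rest.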
Experiment: TROY pathway blockers in reporter cells – Q293 LMP1-TROYcd cells, NF-kB luciferase, uHTS, primary screen (AID 1347056)
Settings: 4 h, at 10 µM, active compounds read high

Row | SMILES | inhibition
1 | COc1ccccc1OP(C)(=O)Nc1cc(Cl)ccc1C (centres undefined) | inactive: 10.1%
2 | COc1ccc(OP(C)(=O)Nc2cccc(F)c2)cc1 (centres undefined) | inactive: -8.89%
3 | Cc1cc(C)cc(OP(C)(N)=O)c1 (centres undefined) | inactive: -11.5%
4 | CCOC(=O)c1ccc(NP(C)(=O)Oc2ccccc2)cc1 (centres undefined) | inactive: -8.72%
5 | COc1ccccc1OP(C)(=O)Nc1ccc(C)cc1 (centres undefined) | inactive: -16.8%
6 | Cc1ccc(NP(C)(=O)Oc2ccccc2)c(C)c1 (centres undefined) | inactive: -12.7%
7 | CC(C)(C)c1ccc(OP(C)(=O)Nc2ccc(SC(F)(F)F)cc2)cc1 (centres undefined) | inactive: 14.8%
8 | Cc1cccc(C)c1OP(C)(N)=O (centres undefined) | inactive: 16%
9 | O=[N+]([O-])c1ccc2c(c1)C=Nc1ccccc1O2 | inactive: -1.54%
10 | O=[N+]([O-])c1cc([N+](=O)[O-])c(Nc2cccnc2)c([N+](=O)[O-])c1 | inactive: 15.3%
11 | COc1ccccc1-c1ccccn1.O=[N+]([O-])c1cc([N+](=O)[O-])c(O)c([N+](=O)[O-])c1 | inactive: 0.97%
12 | CCN(CC)CCCOC(=O)C(O)(c1ccccc1)c1ccccc1 | inactive: 11.6%
13 | CP(=O)(Nc1ccccn1)Oc1ccc(Cl)cc1 (centres undefined) | inactive: -6.04%
14 | CCOP(C)(=S)SCC(=O)NC(C)C(=O)O (centres undefined) | inactive: -24.9%
15 | O=[N+]([O-])c1cc([N+](=O)[O-])c(O)c([N+](=O)[O-])c1.c1ccc(Oc2ccncc2)cc1 | inactive: 13%
16 | CCOC(=O)c1ccc(NP(C)(=O)Oc2ccc(OC)cc2)cc1 (centres undefined) | inactive: 8.64%
17 | CCc1ccc(OP(C)(=O)N2CCN(c3ccc([N+](=O)[O-])cc3)CC2)cc1 (centres undefined) | inactive: 14%
18 | CP(=O)(NC(=O)Nc1ccccc1)Oc1ccccc1 (centres undefined) | inactive: -2.19%
19 | Cc1cc(C)cc(OP(C)(=O)Nc2ccc(SC(F)(F)F)cc2)c1 (centres undefined) | inactive: 4.06%
20 | CP(=O)(Nc1ccc(SC(F)(F)F)cc1)Oc1ccc(Cl)cc1 (centres undefined) | inactive: 13.4%
21 | Cc1ccc(Nc2c([N+](=O)[O-])cc([N+](=O)[O-])cc2[N+](=O)[O-])cc1 | inactive: 36.2%
22 | Cc1cccc(C)c1OP(C)(=O)Nc1ccc(SC(F)(F)F)cc1 (centres undefined) | inactive: 21.9%
23 | CP(=O)(Oc1ccccc1)OC(c1ccccc1)C(F)(F)F (centres undefined) | inactive: 8.11%
24 | COc1ccccc1OP(C)(=O)Nc1ccccc1 (centres undefined) | inactive: 5.06%
25 | CP(=O)(Nc1ccccc1Br)Oc1ccccc1 (centres undefined) | inactive: 19%

Row | SMILES | inhibition
26 | CP(=S)(Nn1cnnc1)Oc1ccccc1 (centres undefined) | inactive: 2.02%
27 | CP(=O)(Nc1ccc(SC(F)(F)F)cc1)Oc1ccccc1 (centres undefined) | inactive: 22.8%
28 | CCCOc1ccc(NP(C)(=O)Oc2ccc(Cl)cc2)cc1 (centres undefined) | inactive: -7.71%
29 | COc1ccc(-c2ccccn2)cc1.O=[N+]([O-])c1cc([N+](=O)[O-])c(O)c([N+](=O)[O-])c1 | inactive: -37.8%
30 | CN1CCCCC1COC(=O)C1(O)c2ccccc2CCc2ccccc21 (centres undefined) | inactive: -33.6%
31 | COc1ccccc1OP(C)(=O)Nc1c(C)cccc1C (centres undefined) | inactive: 10.3%
32 | O=[N+]([O-])c1cc([N+](=O)[O-])c(Nc2nnnn2CCO)c([N+](=O)[O-])c1 | inactive: -13.5%
33 | CCOC(=O)C(CC)C1=NC(C)(C)Cc2ccccc21.O=[N+]([O-])c1cc([N+](=O)[O-])c(O)c([N+](=O)[O-])c1 (centres undefined) | inactive: -2.67%
34 | Cc1nc2ccc3ccccc3c2s1.O=[N+]([O-])c1cc([N+](=O)[O-])c(O)c([N+](=O)[O-])c1 | inactive: -6.28%
35 | O=[N+]([O-])c1cc([N+](=O)[O-])c(-c2cnn(-c3ccccc3)c2)c([N+](=O)[O-])c1 | inactive: -5.33%
36 | CN(Cc1cccnc1)C(=O)COc1ccc(Cl)c(Cl)c1.O=[N+]([O-])c1cc([N+](=O)[O-])c(O)c([N+](=O)[O-])c1 | inactive: 2.59%
37 | O=[N+]([O-])c1cc([N+](=O)[O-])c(-n2nnc3ccccc32)c([N+](=O)[O-])c1 | inactive: 5.04%
38 | CP(=O)(Nc1cccc(Br)c1)Oc1ccccc1 (centres undefined) | inactive: 3.43%
39 | Cc1cc(C)cc(OP(C)(=O)Nc2ccccn2)c1 (centres undefined) | inactive: -0.1%
40 | Cc1ccc(C)c(NP(C)(=O)Oc2ccccc2)c1 (centres undefined) | inactive: -0.39%
41 | Cc1cc(C)cc(OP(C)(=O)Nc2ccc(C)cc2C)c1 (centres undefined) | inactive: -3.12%
42 | CCOC(=O)c1ccc(NP(C)(=O)Oc2cc(C)cc(C)c2)cc1 (centres undefined) | inactive: -0.42%
43 | COc1ccccc1OP(C)(=O)Nc1cccc(Br)c1 (centres undefined) | inactive: -20.8%
44 | CC1=NCCc2c1[nH]c1ccccc21.O=[N+]([O-])c1cc([N+](=O)[O-])c(O)c([N+](=O)[O-])c1 | inactive: 21.9%
45 | O=C(O)c1cccc(Nc2c([N+](=O)[O-])cc([N+](=O)[O-])cc2[N+](=O)[O-])c1 | inactive: -2.03%
46 | O=[N+]([O-])c1cc([N+](=O)[O-])c(OC2CCCCC2O)c([N+](=O)[O-])c1 (centres undefined) | inactive: -13.2%
47 | CCCCCOc1ccc(NP(C)(=O)Oc2ccc(Cl)cc2Cl)cc1 (centres undefined) | inactive: 1.37%
48 | CP(=O)(Nc1ccccc1)Oc1ccc(F)cc1 (centres undefined) | inactive: 18.6%
49 | CCN(CC)CCCOC(=O)C(O)(c1ccccc1)C1CCCCC1 (centres undefined) | inactive: 3.98%
